This note sets out measurements from patent US20260158017A1, “KIF18A INHIBITOR” (WIGEN BIOMEDICINE TECHNOLOGY (SHANGHAI) CO., LTD., priority 2021, published 2026).

Sequences of proteins named here, by UniProt entry; tags and fusion partners are left off. Residues count along the entry.
UniProt Q8NI77, 1-467 limits assumed: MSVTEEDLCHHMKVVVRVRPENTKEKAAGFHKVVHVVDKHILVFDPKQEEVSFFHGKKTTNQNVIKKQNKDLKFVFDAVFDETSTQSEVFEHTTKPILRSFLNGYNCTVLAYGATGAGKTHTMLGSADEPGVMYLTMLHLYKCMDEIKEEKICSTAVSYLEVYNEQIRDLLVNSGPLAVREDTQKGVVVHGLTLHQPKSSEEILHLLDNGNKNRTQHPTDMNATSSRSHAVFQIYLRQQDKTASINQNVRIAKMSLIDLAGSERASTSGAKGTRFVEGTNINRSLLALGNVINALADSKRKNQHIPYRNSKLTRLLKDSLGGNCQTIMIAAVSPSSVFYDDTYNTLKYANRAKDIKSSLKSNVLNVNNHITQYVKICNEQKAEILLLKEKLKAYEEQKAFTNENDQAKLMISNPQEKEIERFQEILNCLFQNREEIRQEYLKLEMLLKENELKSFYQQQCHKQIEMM
UniProt P02554, whole entry partner: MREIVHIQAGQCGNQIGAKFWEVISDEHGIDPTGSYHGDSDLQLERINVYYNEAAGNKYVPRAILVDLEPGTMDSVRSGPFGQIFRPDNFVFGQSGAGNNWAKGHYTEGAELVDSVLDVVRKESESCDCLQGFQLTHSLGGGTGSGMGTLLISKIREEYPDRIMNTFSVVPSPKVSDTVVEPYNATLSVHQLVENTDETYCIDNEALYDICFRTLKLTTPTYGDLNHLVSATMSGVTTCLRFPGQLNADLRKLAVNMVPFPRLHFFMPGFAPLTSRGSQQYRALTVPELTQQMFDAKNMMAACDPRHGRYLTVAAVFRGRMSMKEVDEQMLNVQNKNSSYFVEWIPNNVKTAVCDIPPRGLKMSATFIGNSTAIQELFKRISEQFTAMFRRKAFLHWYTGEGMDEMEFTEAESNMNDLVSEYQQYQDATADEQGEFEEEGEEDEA
UniProt P02550, whole entry partner: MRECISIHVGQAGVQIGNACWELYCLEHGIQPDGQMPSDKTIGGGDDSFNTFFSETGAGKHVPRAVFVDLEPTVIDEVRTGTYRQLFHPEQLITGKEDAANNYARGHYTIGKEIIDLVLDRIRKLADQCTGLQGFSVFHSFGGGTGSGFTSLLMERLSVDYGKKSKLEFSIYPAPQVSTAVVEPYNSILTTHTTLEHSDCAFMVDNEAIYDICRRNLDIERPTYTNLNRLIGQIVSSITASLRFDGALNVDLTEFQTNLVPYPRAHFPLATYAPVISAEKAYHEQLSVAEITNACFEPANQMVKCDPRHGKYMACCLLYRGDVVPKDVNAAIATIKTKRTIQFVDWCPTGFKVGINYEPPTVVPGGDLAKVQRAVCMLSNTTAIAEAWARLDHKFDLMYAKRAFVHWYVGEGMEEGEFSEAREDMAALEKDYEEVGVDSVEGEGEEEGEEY

One may read the IC50 as the concentration that inhibits the measured activity by half.

The target of the experiment is Recombinant human KIF18A (1-467His-tagged) protein (Homo sapiens, UniProt Q8NI77). Put plainly: KIF18A enzyme assay (microtubule-stimulated ATPase activity, ADP-Glo). To be noted: read-out: Inhibitory activity against KIF18A IC50; 30 nM KIF18A, 75 μM ATP, 30 μg/mL pig microtubules.

With `C[C@@H]1CN(c2cc(NC(=O)c3ccc(NS(=O)(=O)[C@H](C)CO)cc3N3CCC4(CC3)CC4)ccc2OCF)CCO1`, the IC50 is below 100 nM.

In the case of `O=C(Nc1ccc(OCF)c(N2CC3CC3C2)c1)c1ccc(NS(=O)(=O)CCO)cc1N1CCC2(CC1)CC2` (centres unmarked), the 50% inhibitory concentration (IC50) was below 100 nM.
